# Laboratory results reported in PubChem BioAssay (NCI).
# Values joined by “and” are separate entries in the source; they are usually repeats but may differ in a detail not shown here. Identical values can stand only once.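 Compound exposure: 48 hours, 5 concentrations, 96-well plates. GI50 marks 50% less growth. TGI is the concentration that stops growth completely.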
# Columns and labels:
# Assay in all cases: NCI-60 cell line screen, 48 h
# T-47D breast = tested on: T-47D breast
# NCI-H460 lung = tested on: NCI-H460 lung
# SK-MEL-2 melanoma = tested on: SK-MEL-2 melanoma
# K-562 leukemia = tested on: K-562 leukemia
# KM12 colon = tested on: KM12 colon
# HT29 colon = tested on: HT29 colon
# NCI-H522 lung = tested on: NCI-H522 lung
# NCI/ADR-RES ovarian = tested on: NCI/ADR-RES ovarian
# HCT-116 colon = tested on: HCT-116 colon
# HCT-15 colon = tested on: HCT-15 colon
# SN12C renal = tested on: SN12C renal
# NCI-H226 lung = tested on: NCI-H226 lung
# PC-3 prostate = tested on: PC-3 prostate
# NCI-H23 lung = tested on: NCI-H23 lung
# M14 melanoma = tested on: M14 melanoma
# SK-MEL-28 melanoma = tested on: SK-MEL-28 melanoma
# IGROV1 ovarian = tested on: IGROV1 ovarian
# ACHN renal = tested on: ACHN renal
# SW-620 colon = tested on: SW-620 colon
# SF-268 CNS = tested on: SF-268 CNS
# HCC-2998 colon = tested on: HCC-2998 colon
# HOP-92 NSCLC = tested on: HOP-92 NSCLC
# DU-145 prostate = tested on: DU-145 prostate
# MALME-3M melanoma = tested on: MALME-3M melanoma
# A549 NSCLC = tested on: A549 NSCLC
# MCF7 breast = tested on: MCF7 breast
# U251 CNS = tested on: U251 CNS
# A498 renal = tested on: A498 renal
# OVCAR-8 ovarian = tested on: OVCAR-8 ovarian
# HL-60(TB) leukemia = tested on: HL-60(TB) leukemia
# OVCAR-5 ovarian = tested on: OVCAR-5 ovarian
# CCRF-CEM leukemia = tested on: CCRF-CEM leukemia
# LOX IMVI melanoma = tested on: LOX IMVI melanoma
# SF-539 CNS = tested on: SF-539 CNS
# EKVX NSCLC = tested on: EKVX NSCLC
# RPMI-8226 leukemia = tested on: RPMI-8226 leukemia
# MOLT-4 leukemia = tested on: MOLT-4 leukemia
# SR leukemia = tested on: SR leukemia
# SK-MEL-5 melanoma = tested on: SK-MEL-5 melanoma
# OVCAR-4 ovarian = tested on: OVCAR-4 ovarian
# CAKI-1 renal = tested on: CAKI-1 renal
# NCI-H322M lung = tested on: NCI-H322M lung
# RXF 393 renal = tested on: RXF 393 renal
# HOP-62 NSCLC = tested on: HOP-62 NSCLC
# SK-OV-3 ovarian = tested on: SK-OV-3 ovarian
# BT-549 breast = tested on: BT-549 breast
# MDA-N = tested on: MDA-N
# OVCAR-3 ovarian = tested on: OVCAR-3 ovarian
# 786-0 renal = tested on: 786-0 renal
# SNB-75 CNS = tested on: SNB-75 CNS
# UACC-257 melanoma = tested on: UACC-257 melanoma
# UACC-62 melanoma = tested on: UACC-62 melanoma
# MDA-MB-231 breast = tested on: MDA-MB-231 breast
# SNB-19 CNS = tested on: SNB-19 CNS
# UO-31 renal = tested on: UO-31 renal
# HS 578T breast = tested on: HS 578T breast
# TK-10 renal = tested on: TK-10 renal
# SF-295 CNS = tested on: SF-295 CNS
# MDA-MB-435 = tested on: MDA-MB-435
structure (smiles),measurement,setting,value
CC(O)C1/C=C/C=C/C(=O)OC2CC3OC4C5OC5(C)C(O)CC4(COC(=O)C(O)C(C)CCO1)C2(C)C31CO1 (configuration not stated),GI50,T-47D breast,39.2 nM and 27 nM
same,TGI,T-47D breast,133 nM and 126 nM
same,GI50,NCI-H460 lung,14.4 nM
same,TGI,NCI-H460 lung,42.9 nM
same,GI50,SK-MEL-2 melanoma,102 nM and 23.2 nM
same,TGI,SK-MEL-2 melanoma,453 nM and 75.4 nM
same,GI50,K-562 leukemia,139 nM
same,GI50,KM12 colon,56.2 nM
same,TGI,KM12 colon,211 nM
same,GI50,HT29 colon,40.9 nM
same,TGI,HT29 colon,272 nM
same,GI50,NCI-H522 lung,5.6 nM
same,TGI,NCI-H522 lung,18.9 nM
same,GI50,NCI/ADR-RES ovarian,3720 nM and 11400 nM
same,TGI,NCI/ADR-RES ovarian,16000 nM and > 100000 nM
same,GI50,HCT-116 colon,52.9 nM and 22.2 nM
same,TGI,HCT-116 colon,140 nM and 103 nM
same,GI50,HCT-15 colon,322 nM and 165 nM
same,TGI,HCT-15 colon,948 nM and 711 nM
same,GI50,SN12C renal,435 nM and 201 nM
same,TGI,SN12C renal,1650 nM
same,GI50,NCI-H226 lung,28.5 nM
same,TGI,NCI-H226 lung,93 nM
same,GI50,PC-3 prostate,593 nM and 77.6 nM
same,TGI,PC-3 prostate,1380 nM and 368 nM
same,GI50,NCI-H23 lung,68 nM
same,TGI,NCI-H23 lung,259 nM
same,GI50,M14 melanoma,46.3 nM and 18.3 nM
same,TGI,M14 melanoma,91.8 nM and 43.1 nM
same,GI50,SK-MEL-28 melanoma,64.1 nM and 11.6 nM
same,TGI,SK-MEL-28 melanoma,141 nM and 44.8 nM
same,GI50,IGROV1 ovarian,56.2 nM and 13.7 nM
same,TGI,IGROV1 ovarian,248 nM and 60 nM
same,GI50,ACHN renal,222 nM and 156 nM
same,TGI,ACHN renal,1100 nM and 753 nM
same,GI50,SW-620 colon,166 nM and 19.6 nM
same,GI50,SF-268 CNS,139 nM and 85.2 nM
same,TGI,SF-268 CNS,1380 nM and 507 nM
same,GI50,HCC-2998 colon,32.8 nM
same,TGI,HCC-2998 colon,194 nM
same,GI50,HOP-92 NSCLC,12.9 nM
same,TGI,HOP-92 NSCLC,69.8 nM
same,GI50,DU-145 prostate,442 nM and 216 nM
same,TGI,DU-145 prostate,1150 nM and 623 nM
same,GI50,MALME-3M melanoma,53.6 nM
same,TGI,MALME-3M melanoma,130 nM
same,GI50,A549 NSCLC,486 nM and 251 nM
same,TGI,A549 NSCLC,1680 nM and 686 nM
same,GI50,MCF7 breast,18.5 nM
same,TGI,MCF7 breast,25000 nM and 66400 nM
same,GI50,U251 CNS,59.2 nM
same,TGI,U251 CNS,232 nM and 141 nM
same,GI50,A498 renal,84.1 nM and 51.2 nM
same,TGI,A498 renal,248 nM and 182 nM
same,GI50,OVCAR-8 ovarian,178 nM and 57.4 nM
same,TGI,OVCAR-8 ovarian,977 nM and 273 nM
same,GI50,HL-60(TB) leukemia,54.5 nM
same,GI50,OVCAR-5 ovarian,552 nM and 214 nM
same,TGI,OVCAR-5 ovarian,1760 nM and 663 nM
same,GI50,CCRF-CEM leukemia,14.1 nM
same,TGI,CCRF-CEM leukemia,453 nM and 109 nM
same,GI50,LOX IMVI melanoma,16.3 nM
same,TGI,LOX IMVI melanoma,58.2 nM
same,GI50,SF-539 CNS,43.3 nM
same,TGI,SF-539 CNS,86.9 nM and 27 nM
same,GI50,EKVX NSCLC,419 nM and 227 nM
same,TGI,EKVX NSCLC,1400 nM and 720 nM
same,GI50,RPMI-8226 leukemia,18.3 nM
same,GI50,MOLT-4 leukemia,6.83 nM
same,TGI,MOLT-4 leukemia,148 nM
same,GI50,SR leukemia,30.7 nM
same,TGI,SR leukemia,3960 nM and 439 nM
same,GI50,SK-MEL-5 melanoma,30.5 nM
same,TGI,SK-MEL-5 melanoma,68.7 nM and 23.6 nM
same,GI50,OVCAR-4 ovarian,80.5 nM and 127 nM
same,TGI,OVCAR-4 ovarian,302 nM and 559 nM
same,GI50,CAKI-1 renal,694 nM and 415 nM
same,TGI,CAKI-1 renal,4540 nM and 1500 nM
same,GI50,NCI-H322M lung,591 nM and 287 nM
same,TGI,NCI-H322M lung,3210 nM and 1570 nM
same,GI50,RXF 393 renal,60.6 nM and 132 nM
same,TGI,RXF 393 renal,189 nM and 452 nM
same,GI50,HOP-62 NSCLC,107 nM and 98.5 nM
same,TGI,HOP-62 NSCLC,608 nM and 605 nM
same,GI50,SK-OV-3 ovarian,83.8 nM and 55.3 nM
same,TGI,SK-OV-3 ovarian,524 nM and 397 nM
same,GI50,BT-549 breast,81.4 nM and 20.3 nM
same,GI50,MDA-N,77 nM
same,TGI,MDA-N,316 nM
same,GI50,OVCAR-3 ovarian,67.7 nM and 14.7 nM
same,TGI,OVCAR-3 ovarian,235 nM and 58.7 nM
same,GI50,786-0 renal,127 nM and 71 nM
same,TGI,786-0 renal,602 nM and 449 nM
same,GI50,SNB-75 CNS,60.8 nM and 32.7 nM
same,TGI,SNB-75 CNS,170 nM and 93.5 nM
same,GI50,UACC-257 melanoma,82.1 nM and 37.9 nM
same,TGI,UACC-257 melanoma,376 nM and 120 nM
same,GI50,UACC-62 melanoma,63.3 nM and 45.8 nM
same,TGI,UACC-62 melanoma,159 nM and 234 nM
same,GI50,MDA-MB-231 breast,494 nM and 252 nM
same,TGI,MDA-MB-231 breast,1240 nM and 703 nM
same,TGI,SNB-19 CNS,31.3 nM
same,GI50,UO-31 renal,525 nM and 1460 nM
same,TGI,UO-31 renal,1420 nM and 5040 nM
same,GI50,HS 578T breast,55.9 nM and 23.5 nM
same,TGI,HS 578T breast,161 nM and 63.5 nM
same,GI50,TK-10 renal,160 nM and 64.2 nM
same,TGI,TK-10 renal,1470 nM and 309 nM
same,GI50,SF-295 CNS,378 nM and 181 nM
same,TGI,SF-295 CNS,709 nM and 668 nM
same,GI50,MDA-MB-435,71.6 nM and 29.5 nM
same,TGI,MDA-MB-435,279 nM and 114 nM
